# Laboratory results published in patent publication US11904015B2, “Vaccine compositions and methods of use” (PDS BIOTECHNOLOGY CORPORATION, priority 2012, dated 2024).
# Tested on: HPV-16 E7 peptide (aa43-57)
# Conditions: individual animals
# [1] = s.c. vaccination days 1, 21, 42, 0.086 mg R-DOTAP
compound,measurement,setting,value
"CCCCCCCC/C=C\CCCCCCCC(=O)OCC(C[N+](C)(C)C)OC(=O)CCCCCCC/C=C\CCCCCCCC (stereo not shown) [R-DOTAP, 1,2-dioleoyl-3-trimethylammonium propane]",Pretest IgG (E743-57),before vaccination,<2 Log Titers
same,Pretest IgM (E743-57),before vaccination,<2 Log Titers
same,Day 57 IgG (E743-57),[1],<2 Log Titers
same,Day 57 IgM (E743-57),[1],<2 Log Titers (6×) and 2 Log Titers (2×)

# Values joined by “and” are separate entries in the source; they are usually repeats but may differ in a detail not shown here. Identical values can stand only once.
